Many of the other results were omitted from the sample, so hits are more common in it than they were.
HCMV NEC inh: inhibitors of HCMV UL50-UL53 interaction, biochemical, HTRF. 0.15% of 190,000 active. inhibition, % (concentration not given with the values). AID 1918969, 2023. normalized percent inhibition. HCMV UL50-UL53 nuclear egress complex (human cytomegalovirus); in the data active = inhibition above about 27%, passing the limit was not always enough
GIV Gai3 FP: inhibitors of GIV GBA-motif binding to rat Galpha-i3. actives 0.42% (n = 210,000). Galpha-i3/FITC-GIV peptide fluorescence polarization, 90 min; active compounds read low; scaled: aluminum fluoride 0%, vehicle 100%. AID 1224905. percent of control (FP), % (no concentration beside the values). P08753;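 active means replicate mean at 85% of control or lower, very high polarization wells dropped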;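 further: wells of about 15 µL received 100 nL stock; the first replicate is given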
Active calls of the source: *; nt = not tested or not shown.

No.	structure	GIV Gai3 FP	HCMV NEC inh
1	Cc1ccc(NC(=O)CS(=O)CC(=O)Nc2ccc(N3CCOCC3)cc2)cc1Cl (configuration not stated)	99	-7
2	Cc1cnc2c(c1)C(=Nc1cccc3ccccc13)c1cccc(C)c1-2	114	nt
3	CCNc1cc(N2CCN(c3ccccc3)CC2)c2noc3c2c1C(=O)c1ccccc1-3	114	-2
4	CN(C)CCNc1cc(N2CCOCC2)c2noc3c2c1C(=O)c1ccccc1-3	-68*	-73
5	CCNc1cc(N2CCCC2)c2noc3c2c1C(=O)c1ccccc1-3	201	nt
6	CCCCNc1cc(N2CCC(C)CC2)c2noc3c2c1C(=O)c1ccccc1-3	2.5*	-60
7	CCNc1cc(N2CCC(C)CC2)c2noc3c2c1C(=O)c1ccccc1-3	139	-72
8	CN(C)CCNc1cc(N2CCN(C(=O)c3ccco3)CC2)c2noc3c2c1C(=O)c1ccccc1-3	-31*	-132
9	CC(C(=O)N1CCCc2ccccc21)N1CCN(C(=O)c2ccccc2)CC1 (configuration not stated)	nt	-14
10	Cc1cc(NS(=O)(=O)c2ccc(N3C(=O)C=CC3=O)cc2)no1	97	35
11	CN(C)c1ccc(C2=CC(C3CC3)=C(C#N)C(=C(C#N)C#N)N2)cc1	105	11
12	COc1ccc(C2=CC(C3CC3)=C(C#N)C(=C(C#N)C#N)N2)cc1	65*	-65
13	CCc1onc(C)c1C1CCCN1Cc1cn[nH]c1-c1cc(OC)ccc1OC (configuration not stated)	108	nt
14	CC1(C)CC(=O)C2=C(C1)Nc1ccccc1N(C(=O)Nc1ccccc1)C2c1ccccc1 (configuration not stated)	98	nt
15	O=C(O)COCC(=O)Nc1ccc2c(c1)oc1ccccc12	104	nt
16	O=C(O)CCC(=O)Nc1ccc2c(c1)oc1ccccc12	105	52*
17	CCCCCCC(CC[n+]1c(/C=C/C=C2N(CC)c3cc(Cl)c(Cl)cc3N2CC)n(CC)c2cc(Cl)c(Cl)cc21)S(=O)(=O)[O-] (configuration not stated)	109	nt
18	CCCCCN1/C(=C\C=C\c2n(CCCC)c3cc(Cl)c(Cl)cc3[n+]2CCCCC)N(CCCC)c2cc(Cl)c(Cl)cc21	-62*	nt
19	CCCN(Cc1ccc(F)cc1)Cc1cc(=O)n2nc(C3CC3)sc2n1	109	nt
20	CC(C)Oc1ccc(C(=O)Nc2sc3c(c2-c2nc4ccccc4s2)CCN(C)C3)cc1	-3.2*	nt
21	CC(C)N1CCc2c(sc(NC(=O)c3ccc(F)cc3)c2-c2nc3ccccc3s2)C1	-3.2*	nt
22	CCC(=O)Nc1sc2c(c1-c1nc3ccccc3s1)CCN(C(C)=O)C2	104	-28
23	CCOC(=O)c1c(NC(=O)c2ccc(Cl)cc2)sc2c1CCN(C(C)C)C2	186	nt
24	CN1CCc2c(sc(NC(=O)CSc3ccccc3)c2-c2nc3ccccc3s2)C1	188	nt
25	CC(=O)N1CCc2c(sc(NC(=O)c3ccc(Br)s3)c2-c2nc3ccccc3s2)C1	108	-22
26	COC(=O)c1c(NC(=O)c2ccc(Br)cc2)sc2c1CCN(C(C)C)C2	-26*	nt
27	CCOc1ccc(C(=O)Nc2sc3c(c2-c2nc4ccccc4s2)CCN(CC)C3)cc1	-3.2*	nt
28	O=C(CN1C(=O)c2ccccc2C1=O)Nc1ncn(Cc2ccc(Cl)cc2)n1	98	-15
29	CC(=O)Nc1sc2c(c1-c1nc3ccccc3s1)CCN(Cc1ccccc1)C2	-3.2*	nt
30	CCN1CCc2c(sc(NC(=O)CCc3ccccc3)c2-c2nc3ccccc3s2)C1	121	nt

Other results follow:
No.	structure	GIV Gai3 FP	HCMV NEC inh
31	CC(C)(CO)NC(=O)c1cccc(S(=O)(=O)N2CCOCC2)c1	98	-9
32	Cc1ccc(/C=C2\SC(=O)N(c3ccccc3)C2=O)o1	104	-5
33	O=C1S/C(=C\c2ccc(N3CCOCC3)o2)C(=O)N1c1ccccc1	-42*	nt
34	COc1ccc(CNc2ccc3cn[nH]c3c2)c(OC)c1C	101	52*
35	Cc1ccc(C)c(CNc2ccc3[nH]ncc3c2)c1	110	-35
36	O=C(CCSc1ccccc1)NCCc1ccccc1	102	-13
37	CN(C)/C=C/C=C1\CC/C(=C\C=C\N(C)C)C1=O	155	21
38	CN(C)/C=C/C=C1\CCc2ccccc2C1=O	-73*	nt
39	CN1C(=O)C(=Cc2cc(Br)ccc2OCc2ccccc2)C(=O)N(C)C1=O	105	-3
40	O=C1NC(=O)C(=Cc2cc(Br)ccc2OCc2ccccc2)C(=O)N1	106	89*
41	CCOc1cc(C=C2C(=O)NC(=S)NC2=O)ccc1OCc1ccccc1Cl	105	-11
42	O=C1NC(=S)NC(=O)C1=Cc1ccc(OCc2ccccc2)c(Br)c1	99	66*
43	CCOC(=O)COc1ccc(Br)cc1C=C1C(=O)NC(=O)NC1=O	97	57*
44	Cc1ccc(OCCOc2ccc(Br)cc2C=C2C(=O)NC(=S)NC2=O)cc1	95	-25

Exported with each value named: entries from further up.
#40 O=C1NC(=O)C(=Cc2cc(Br)ccc2OCc2ccccc2)C(=O)N1
- GIV Gai3 FP: 106
- HCMV NEC inh: 89*
#41 CCOc1cc(C=C2C(=O)NC(=S)NC2=O)ccc1OCc1ccccc1Cl
- GIV Gai3 FP: 105
- HCMV NEC inh: -11
#42 O=C1NC(=S)NC(=O)C1=Cc1ccc(OCc2ccccc2)c(Br)c1
- GIV Gai3 FP: 99
- HCMV NEC inh: 66*
#43 CCOC(=O)COc1ccc(Br)cc1C=C1C(=O)NC(=O)NC1=O
- GIV Gai3 FP: 97
- HCMV NEC inh: 57*
